Values of other authors, collected in patent US20240050950A1, “GRADIENT-BASED MICROFLUIDIC CIRCUIT, DEVICE, AND METHOD FOR PERFORMING AN ASSAY” (priority 2020, published 2024).
Read-outs that look alike come from different tables or passages of the source.

B1: Ibritumomab Tiuxetan (conjugate, chains of the INN, looked up)
heavy: QAYLQQSGAELVRPGASVKMSCKASGYTFTSYNMHWVKQTPRQGLEWIGAIYPGNGDTSYNQKFKGKATLTVDKSSSTAYMQLSSLTSEDSAVYFCARVVYYSNSYWYFDVWGTGTTVTVSAPSVYPLAPVCGDTTGSSVTLGCLVKGYFPEPVTLTWNSGSLSSGVHTFPAVLQSDLYTLSSSVTVTSSTWPSQSITCNVAHPASSTKVDKKIEPRGPTIKPCPPCKCPAPNLLGGPSVFIFPPKIKDVLMISLSPIVTCVVVDVSEDDPDVQISWFVNNVEVHTAQTQTHREDYNSTLRVVSALPIQHQDWMSGKEFKCKVNNKDLPAPIERTISKPKGSVRAPQVYVLPPPEEEMTKKQVTLTCMVTDFMPEDIYVEWTNNGKTELNYKNTEPVLDSDGSYFMYSKLRVEKKNWVERNSYSCSVVHEGLHNHHTTKSFSR
light: QIVLSQSPAILSASPGEKVTMTCRASSSVSYMHWYQQKPGSSPKPWIYAPSNLASGVPARFSGSGSGTSYSLTISRVEAEDAATYYCQQWSFNPPTFGAGTKLELKRADAAPTVFIFPPSDEQLKSGTASVVCLLNNFYPREAKVQWKVDNALQSGNSQESVTEQDSKDSTYSLSSTLTLSKADYEKHKVYACEVTHQGLSSPVTKSFN
modifications: tiuxetan chelator

Conditions: cited from earlier work

Row | Molecule | Molar volume (Table 3, antifungal drugs and other molecules) [cm^3] | Molar volume (Table 2, anticancer drugs) [cm^3]
1 | CC(=O)Nc1c2sscc-2n(C)c1=O [Thiolutin] | 146.5 ± 5.0 | 
2 | B1 |  | 399.8 ± 7.0
